Sequences of proteins named here, by UniProt entry; tags and fusion partners are left off.
UniProt P08753, whole entry: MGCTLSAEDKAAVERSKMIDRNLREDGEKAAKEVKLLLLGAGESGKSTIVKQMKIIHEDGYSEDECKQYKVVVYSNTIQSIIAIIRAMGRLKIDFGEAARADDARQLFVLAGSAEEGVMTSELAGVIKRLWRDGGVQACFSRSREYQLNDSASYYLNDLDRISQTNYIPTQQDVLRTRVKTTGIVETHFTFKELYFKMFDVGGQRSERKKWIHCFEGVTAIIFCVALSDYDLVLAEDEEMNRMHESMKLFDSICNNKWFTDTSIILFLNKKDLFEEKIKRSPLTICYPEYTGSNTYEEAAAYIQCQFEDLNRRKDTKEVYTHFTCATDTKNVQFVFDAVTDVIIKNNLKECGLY
UniProt Q3V6T2, whole entry partner: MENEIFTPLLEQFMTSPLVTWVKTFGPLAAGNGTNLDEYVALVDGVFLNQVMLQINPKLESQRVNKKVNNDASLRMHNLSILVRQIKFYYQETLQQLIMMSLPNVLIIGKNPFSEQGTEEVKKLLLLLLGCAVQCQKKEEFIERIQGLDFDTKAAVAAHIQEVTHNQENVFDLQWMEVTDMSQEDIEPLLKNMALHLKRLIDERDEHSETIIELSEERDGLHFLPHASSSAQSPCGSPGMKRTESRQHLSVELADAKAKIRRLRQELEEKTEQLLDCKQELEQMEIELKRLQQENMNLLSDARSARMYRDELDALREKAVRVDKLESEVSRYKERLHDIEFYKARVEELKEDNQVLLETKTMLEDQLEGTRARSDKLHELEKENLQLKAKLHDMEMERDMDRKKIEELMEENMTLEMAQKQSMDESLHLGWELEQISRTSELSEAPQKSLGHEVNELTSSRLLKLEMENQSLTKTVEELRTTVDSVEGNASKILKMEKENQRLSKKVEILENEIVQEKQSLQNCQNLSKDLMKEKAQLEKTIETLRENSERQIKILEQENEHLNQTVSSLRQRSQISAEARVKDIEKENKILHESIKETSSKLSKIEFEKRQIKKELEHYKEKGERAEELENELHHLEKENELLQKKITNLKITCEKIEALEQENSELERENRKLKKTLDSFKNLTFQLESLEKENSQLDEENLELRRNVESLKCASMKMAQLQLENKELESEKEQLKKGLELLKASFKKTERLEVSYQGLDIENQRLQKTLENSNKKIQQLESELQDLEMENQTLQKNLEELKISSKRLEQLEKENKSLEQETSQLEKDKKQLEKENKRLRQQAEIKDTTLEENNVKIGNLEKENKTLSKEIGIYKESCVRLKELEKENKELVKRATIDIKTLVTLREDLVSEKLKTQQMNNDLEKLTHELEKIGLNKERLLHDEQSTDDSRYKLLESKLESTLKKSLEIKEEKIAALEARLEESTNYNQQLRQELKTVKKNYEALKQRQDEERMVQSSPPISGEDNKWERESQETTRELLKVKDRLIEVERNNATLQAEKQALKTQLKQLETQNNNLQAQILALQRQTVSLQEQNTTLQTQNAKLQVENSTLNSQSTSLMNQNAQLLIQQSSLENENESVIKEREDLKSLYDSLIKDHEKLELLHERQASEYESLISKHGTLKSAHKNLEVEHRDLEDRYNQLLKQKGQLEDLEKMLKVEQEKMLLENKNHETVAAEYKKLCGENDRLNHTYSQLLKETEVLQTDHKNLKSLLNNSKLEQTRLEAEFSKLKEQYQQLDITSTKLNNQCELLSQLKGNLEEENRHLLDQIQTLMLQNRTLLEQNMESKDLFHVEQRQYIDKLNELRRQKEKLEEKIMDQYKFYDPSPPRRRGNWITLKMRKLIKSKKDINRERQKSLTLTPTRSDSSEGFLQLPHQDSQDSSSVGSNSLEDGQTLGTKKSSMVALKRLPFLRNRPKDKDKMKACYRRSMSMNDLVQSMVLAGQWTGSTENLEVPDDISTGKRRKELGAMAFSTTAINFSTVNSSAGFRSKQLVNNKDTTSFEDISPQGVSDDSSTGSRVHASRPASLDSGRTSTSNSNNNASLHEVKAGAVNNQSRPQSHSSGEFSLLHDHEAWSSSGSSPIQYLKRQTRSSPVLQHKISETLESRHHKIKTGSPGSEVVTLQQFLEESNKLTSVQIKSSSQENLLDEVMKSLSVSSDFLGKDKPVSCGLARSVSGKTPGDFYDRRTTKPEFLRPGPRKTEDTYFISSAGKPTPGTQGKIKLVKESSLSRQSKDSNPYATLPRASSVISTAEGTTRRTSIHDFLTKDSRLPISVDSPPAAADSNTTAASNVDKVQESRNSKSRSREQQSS

Only a part is listed here, and it is no random draw. The source made the active and inactive calls.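 How the source made its calls: active means mean replicate percent of control at or below 100 minus about 85%, very high polarization wells dropped (limit read from the data); inactive means the rest.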
These compounds were tested against Guanine nucleotide-binding protein G(i) subunit alpha-3 (Rattus norvegicus) (UniProt P08753) (assay: disruptors of GIV-Galphai3 protein-protein interaction – biochemical, fluorescence polarization, FITC-GIV GBA peptide, rat Galphai3, primary screen (AID 1224905;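 further: lower values mean more displacement of the GIV peptide from Galpha-i3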)). Settings: Galpha-i3/FITC-GIV peptide fluorescence polarization, 90 min; active compounds read low; scaled: aluminum fluoride 0%, vehicle 100%.
With `CP(=O)(Nc1ccc(Cl)cc1)Oc1ccc(F)cc1` (stereo not drawn) the percent of control (FP) was inactive: 105%.
With `CCOP(OCC)N1CCOCC1` the percent of control (FP) was inactive: 110%.
`Nc1cc(N)c2nonc2c1[N+](=O)[O-]` was tested, and the percent of control (FP) was inactive: 97.4%.
In the case of `CP(=O)(Nc1ccccn1)Oc1ccccc1` (stereo not drawn), the percent of control (FP) is reported as inactive: 99.8%.
With `CC(=O)OC=C1c2cc([N+](=O)[O-])cc([N+](=O)[O-])c2-c2c1cc([N+](=O)[O-])cc2[N+](=O)[O-]` the percent of control (FP) was inactive: 104%.
For `O=CC1c2cc([N+](=O)[O-])cc([N+](=O)[O-])c2-c2c1cc([N+](=O)[O-])cc2[N+](=O)[O-]`, the percent of control (FP) was inactive: 110%.
In the case of `N#Cc1cc([N+](=O)[O-])cc2c1-c1c(cc([N+](=O)[O-])cc1[N+](=O)[O-])C2=O`, the percent of control (FP) is reported as inactive: 110%.
With `CCOP(=Nc1nc2ccccc2n2nnnc12)(OCC)OCC` the percent of control (FP) was inactive: 104%.
For `CN(C(=O)Cc1ccc(Cl)c(Cl)c1)[C@H]1CCCC[C@@H]1N1CCCC1`, the percent of control (FP) was inactive: 106%.
For `COC(=O)N(c1ccccc1)P1(=S)OCC(C)O1` (stereo not drawn), the percent of control (FP) was inactive: 103%.
In the case of `CN(C)c1cc2c(c([N+](=O)[O-])c1)-c1c(cc([N+](=O)[O-])cc1[N+](=O)[O-])C2=O`, the percent of control (FP) is reported as inactive: 105%.
For `CN(C(=O)Cc1ccc(Cl)c(Cl)c1)[C@@H]1CCCC[C@@H]1N1CCCC1`, the percent of control (FP) was inactive: 103%.
In the case of `O=C(OC1CN2CCC1CC2)c1ccccc1` (stereo not drawn), the percent of control (FP) is reported as inactive: 102%.
For `COc1cc2c(cc1NP(C)(=O)Oc1ccccc1)oc1ccccc12` (stereo not drawn), the percent of control (FP) was inactive: 102%.
`O=C(OC1/C(=C/c2ccccc2F)N2CCC1CC2)c1ccccc1` (stereo not drawn) was tested, and the percent of control (FP) was inactive: 105%.
In the case of `O=[N+]([O-])c1cc([N+](=O)[O-])c(Sc2nc3ccccc3s2)c([N+](=O)[O-])c1`, the percent of control (FP) is reported as inactive: 110%.
`O=C(OCCN1CCN(CCOCc2ccccc2)CC1)C(O)(c1ccccc1)c1ccccc1` was tested, and the percent of control (FP) was inactive: 99.7%.
For `O=[N+]([O-])c1cc2c(c([N+](=O)[O-])c1)-c1c(cc([N+](=O)[O-])cc1[N+](=O)[O-])C2=NO`, the percent of control (FP) was inactive: 105%.
`Cc1ccc(NP(=O)(/N=c2\nc(-c3ccccc3)n(-c3ccccc3)s2)Nc2ccc(C)cc2)cc1` was tested, and the percent of control (FP) was inactive: 118%.
With `Cc1ccccc1NP(C)(=O)Nc1ccccc1C` the percent of control (FP) was inactive: 97.5%.
In the case of `C=CCN1CCN(CCOC(=O)C(O)(c2ccccc2)c2ccccc2)CC1`, the percent of control (FP) is reported as inactive: 110%.
`Nc1nonc1OCc1nonc1COc1nonc1N` was tested, and the percent of control (FP) was inactive: 102%.
In the case of `Cc1ccc(C(=O)OC2CN3CCC2CC3)cc1` (stereo not drawn), the percent of control (FP) is reported as inactive: 102%.
`Cc1cc(C)cc(OP(C)(=O)Nc2ccc(OC(C)C)cc2)c1` (stereo not drawn) was tested, and the percent of control (FP) was inactive: 106%.
With `O=P1(Nc2ccccn2)COc2ccccc2OC1` the percent of control (FP) was inactive: 98.7%.
`Nc1nonc1-c1no[n+]([O-])c1-c1nonc1N` was tested, and the percent of control (FP) was inactive: 105%.
With `O=C(OC1CN2CCC1CC2)c1ccc(Cl)cc1` (stereo not drawn) the percent of control (FP) was inactive: 105%.
For `CN(C(=O)Cc1ccc(Cl)c(Cl)c1)[C@@H]1CC[C@]2(CCCO2)C[C@H]1N1CCCC1`, the percent of control (FP) was inactive: 106%.
`Cc1cccc(OCC(=O)OC2CN3CCC2CC3)c1` (stereo not drawn) was tested, and the percent of control (FP) was inactive: 102%.
For `NC(=O)COC(=O)C1(O)c2ccccc2-c2ccccc21`, the percent of control (FP) was inactive: 98.8%.
`O=P1(Nc2nc3ccc(Cl)cc3s2)COc2ccccc2OC1` was tested, and the percent of control (FP) was inactive: 99.1%.
With `CN(C(=O)Cc1ccccc1)[C@@H]1CC[C@]2(CCCO2)C[C@H]1N1CCCC1` the percent of control (FP) was inactive: 101%.
With `O=C(O)C1(O)c2ccccc2-c2ccccc21` the percent of control (FP) was inactive: 99.4%.
In the case of `CC1=Nc2ccc(C(F)(F)F)cc2C1(C)C`, the percent of control (FP) is reported as inactive: 109%.
In the case of `O=[N+]([O-])c1ccc(NN=C2c3cc([N+](=O)[O-])cc([N+](=O)[O-])c3-c3c2cc([N+](=O)[O-])cc3[N+](=O)[O-])cc1`, the percent of control (FP) is reported as inactive: 101%.
`Nc1nonc1OCCOc1nonc1N` was tested, and the percent of control (FP) was inactive: 93.2%.
With `Cc1cc(C)cc(OP(C)(=O)NCc2ccccc2)c1` (stereo not drawn) the percent of control (FP) was inactive: 107%.
For `O=C(OC1CN2CCC1CC2)C12CC3CC(CC(C3)C1)C2` (stereo not drawn), the percent of control (FP) was inactive: 105%.
`COP(=O)(OC)C(NC(=O)c1ccc(C)cc1)=C(Cl)Cl` was tested, and the percent of control (FP) was inactive: 104%.
`CCCOC=C1c2cc([N+](=O)[O-])cc([N+](=O)[O-])c2-c2c1cc([N+](=O)[O-])cc2[N+](=O)[O-]` was tested, and the percent of control (FP) was inactive: 113%.
In the case of `CP(=O)(Nc1ccc(Cl)cc1)Oc1ccccc1` (stereo not drawn), the percent of control (FP) is reported as inactive: 98.8%.
For `Cc1nn2c(c1[N+](=O)[O-])n1nc(C)c([N+](=O)[O-])c1n1nc(C)c([N+](=O)[O-])c21`, the percent of control (FP) was inactive: 110%.
`COc1ccccc1OP(C)(=O)Nc1ccccc1` (stereo not drawn) was tested, and the percent of control (FP) was inactive: 101%.

— PubChem BioAssay AID1224905 (ICCB-Longwood Screening Facility, Harvard Medical School, 2016)
